Reference: ChEMBL document CHEMBL1133730 (J Med Chem, 2000)

Protein sequences, listed by entry. Tags and fused reporters are not part of them.
UniProt P28647, whole entry: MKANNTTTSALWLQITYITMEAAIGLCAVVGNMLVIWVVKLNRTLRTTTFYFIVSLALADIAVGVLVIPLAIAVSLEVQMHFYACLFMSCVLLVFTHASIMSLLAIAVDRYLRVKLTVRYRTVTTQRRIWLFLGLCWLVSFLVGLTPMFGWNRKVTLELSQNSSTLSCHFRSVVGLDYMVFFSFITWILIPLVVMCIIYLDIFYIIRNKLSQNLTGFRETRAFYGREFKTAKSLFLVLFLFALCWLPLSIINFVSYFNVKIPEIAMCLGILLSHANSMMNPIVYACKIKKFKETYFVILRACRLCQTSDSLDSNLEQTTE

Biological target: Adenosine receptor A3 (Rattus norvegicus, UniProt P28647)
Assay: Displacement of [125I]- AB-MECA from rat adenosine A3 receptor expressed in CHO cells
Assay type: cell-based

Question: Which Ki does the source give for `OC[C@H]1O[C@@H](n2cnc3c(NC4CCCC4)ncnc32)[C@H](O)[C@@H]1O` [N6-CYCLOPENTYLADENOSINE] here?
Answer: Its Ki is 274 nM.
